In one assay the test system is CPP2. The experiment in a line: Competitive 18F-NaF binding assay on CPPs. Also on record: species or system human. The settings on record: concentration 25 (unit not given).
In assay [1] the test system is transformation of CPP1 to CPP2 in pooled human serum. Kind of assay: In vitro serum calcification propensity (T50) screening assay. Also on record: key: T50 in minutes (time to 50% CPP phase transition). The format is biochemical.

The values below come from article PMC7002685, “Inhibition of vascular calcification by inositol phosphates derivatized with ethylene glycol oligomers” (Nature Communications, 2020).

“And” between values parts separate entries of the source, which are not always exact repeats. Equal values may be shown once.

Consider `NCCCC(O)(P(=O)(O)O)P(=O)(O)O` [Alendronate, alendronate], for which the “18F-NaF percentage binding to CPP2” value with CPP2 is 114.164%.
For `O=P(O)(O)O[C@H]1[C@H](OP(=O)(O)O)[C@@H](OP(=O)(O)O)[C@H](OP(=O)(O)O)[C@@H](OP(=O)(O)O)[C@H]1OP(=O)(O)O` [IP6, myo-Inositol hexakisphosphate], the T50 in assay [1] (0.3 µM, individual experiments, Fig. 2a) was 232.833 min; in assay [1] (2 µM, individual experiments, Fig. 2a) it was 232.25 min; in assay [1] (3 µM, individual experiments, Fig. 2a) it was 231.233 min and 231.267 min and 231.333 min; in assay [1] (10 µM, individual experiments, Fig. 2a), 232.967 min; in assay [1] (concentration 2 μM, one value per experiment), 232.25.
